Measured values from patent US10166249B2, “Substituted bicyclic compounds” (BRISTOL-MYERS SQUIBB COMPANY, priority 2014, dated 2019).

Chains of the proteins cited; added tags and fusions are not shown.
UniProt P21453, whole entry: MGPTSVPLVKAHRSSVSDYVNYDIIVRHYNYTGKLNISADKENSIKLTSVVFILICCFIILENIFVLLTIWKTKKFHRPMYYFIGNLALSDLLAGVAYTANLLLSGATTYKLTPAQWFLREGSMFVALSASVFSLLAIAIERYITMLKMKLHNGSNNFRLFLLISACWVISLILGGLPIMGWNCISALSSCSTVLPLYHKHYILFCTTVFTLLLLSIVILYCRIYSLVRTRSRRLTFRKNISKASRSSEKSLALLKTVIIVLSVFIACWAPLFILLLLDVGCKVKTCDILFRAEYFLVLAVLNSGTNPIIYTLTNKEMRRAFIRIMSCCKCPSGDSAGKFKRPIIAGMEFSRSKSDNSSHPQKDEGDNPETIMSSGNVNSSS
UniProt Q99500, whole entry: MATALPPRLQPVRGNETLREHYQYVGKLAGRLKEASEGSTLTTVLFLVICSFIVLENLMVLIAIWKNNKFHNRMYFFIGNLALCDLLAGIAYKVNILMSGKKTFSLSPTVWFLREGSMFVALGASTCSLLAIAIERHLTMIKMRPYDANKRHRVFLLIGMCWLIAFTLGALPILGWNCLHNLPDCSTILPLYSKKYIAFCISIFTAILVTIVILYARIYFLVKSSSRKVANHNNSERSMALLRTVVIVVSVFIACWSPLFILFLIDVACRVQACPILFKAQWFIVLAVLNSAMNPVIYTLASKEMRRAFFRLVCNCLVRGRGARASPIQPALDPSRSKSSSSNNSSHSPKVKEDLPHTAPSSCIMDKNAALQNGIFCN

Assays:
S1P1 [1] = biological target: T1, S1P1 (Homo sapiens (Human), UniProt P21453); assay: S1P1 binding assay (33P-S1P radioligand competition, membranes from CHO cells); conditions: read-out: S1P1 Binding; phosphate examples
hS1P1 = hS1P1 (Homo sapiens (Human), UniProt P21453); assay: hS1P1 ERK phosphorylation (S1P1 pERK) in hS1P1/CHO cells; conditions: read-out: S1P1 pERK; phosphate examples
S1P3 (EDG3) = S1P3 (EDG3) (Homo sapiens (Human), UniProt Q99500); assay: Receptor [35S] GTPγS binding assay (S1P3 GTPγS), membranes from EDG3-Gal5-bla HEK293T cells; conditions: read-out: S1P3 GTPγS; phosphate examples
S1P1 [2] = biological target: T1, S1P1; assay: Receptor [35S] GTPγS binding assay (S1P1 GTPγS), membranes from S1P1/CHO cells; type: biochemical; conditions: read-out: S1P1 GTPγS; phosphate examples

| IC50 (S1P1 [1]) [nM] | EC50 (hS1P1) [nM] | EC50 (S1P3 (EDG3)) [nM] | EC50 (S1P1 [2]) [nM] | Structure (SMILES) |
| --- | --- | --- | --- | --- |
| < 10 | < 10 | > 625 | 10 to 100 | COCCCC1CCc2cc([C@H]3CC[C@](N)(COP(=O)(O)O)C3)ccc2C1 (single isomer, unassigned) |
| – | – | – | 100 to 1000 | COc1ccc(OC[C@@H]2CCc3cc([C@H]4CC[C@](N)(COP(=O)(O)O)C4)ccc3C2)cc1C(C)(C)C |
